Values quoted from earlier work, collected in US7115574B2, “System and method for support legacy operating system booting in a legacy-free system” (priority 2001, dated 2006).

Conditions: Lipton and Catania, Immunol. Today 1997; cited from earlier work

Ac-Lys-Pro-Val-NH2 (KPV; N-acetyl, C-amide; Designed polypeptide with anti-inflammatory, anti-bacterial, anti-fungal and antipyretic properties.) [α-MSH(11-13)]
toxicity: very low toxicity
